Our source for the IC50 and ED50 values is ChEMBL document CHEMBL1125782, “Structure/activity studies related to 2-(3,4-dichlorophenyl)-N-methyl-N-[2-(1-pyrrolidinyl)-1-substituted- ethyl]acetamides: a novel series of potent and selective kappa-opioid agonists” (1991).

Sequences of proteins named here, by UniProt entry; tags and fusion partners are left off. A change or cut given only in a name is not applied to a line headed by its entry.
UniProt P41144: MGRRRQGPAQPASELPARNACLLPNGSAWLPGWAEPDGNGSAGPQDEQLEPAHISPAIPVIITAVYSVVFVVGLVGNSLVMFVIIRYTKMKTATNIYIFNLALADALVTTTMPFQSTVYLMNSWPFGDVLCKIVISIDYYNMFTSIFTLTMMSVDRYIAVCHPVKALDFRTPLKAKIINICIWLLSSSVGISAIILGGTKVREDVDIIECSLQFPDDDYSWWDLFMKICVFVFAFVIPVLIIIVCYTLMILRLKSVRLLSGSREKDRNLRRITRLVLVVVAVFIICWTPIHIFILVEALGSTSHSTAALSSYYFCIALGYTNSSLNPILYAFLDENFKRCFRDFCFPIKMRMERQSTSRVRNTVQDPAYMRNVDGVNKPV

Each structure is given as a SMILES string. Some results are limits rather than exact numbers.

Usually IC50 stands for the concentration that inhibits the measured activity by half. Lower therefore signals inhibition by little substance. One may read the ED50 as the midpoint of the dose-response relation. Read a low ED50 as an effect at a small dose.

Assay [1] has as its target T1, Kappa-type opioid receptor (Cavia porcellus, UniProt P41144). As to the kind of experiment: Binding affinity against opioid receptor kappa in guinea pig brain membrane using [3H]bremazocine as the radioligand.
Assay [2] concerns Mus musculus. As to the kind of experiment: Sedative activity after sc administration in female mice (Alderley Park strain).
The target of assay [3] is T1, Kappa-type opioid receptor. Put plainly: Binding affinity against opioid receptor kappa, in guinea pig brain membrane, using [3H]bremazocine as the radioligand.
The subject of assay [4] is Mus musculus. As to the kind of experiment: Antinociceptive activity in acetic acid induced abdominal constriction assay after sc administration and abolished by naloxone administered at 3 mg/kg sc in mice. Particulars: route subcutaneous, Abdomen.
Assay [5] deals with T1, Kappa-type opioid receptor. As to the kind of experiment: Binding affinity against Opioid receptor kappa 1, in guinea pig brain membrane, using [3H]bremazocine as the radioligand.

`CN(C(=O)Cc1ccc(Cl)c(Cl)c1)C(CN1CCCC1)c1ccccc1O` (stereo not given) gave a concentration for half-maximal inhibition (IC50) in assay [1] of 21.7 nM. For the compound `CC(C)[C@@H](CN1CCCC1)N(C)C(=O)Cc1ccccc1`, the half-maximal inhibitory concentration (IC50) in assay [1] was found to be 656 nM. The compound also returned an ED50 in assay [2] of 12.6 mg/kg. `CC(C)C[C@@H](CN1CCCC1)N(C)C(=O)Cc1ccc(Cl)c(Cl)c1` registered a half-inhibitory concentration (IC50) in assay [3] of 14 nM. This compound also showed an ED50 in assay [2] of 0.37 mg/kg.

`CC(C)[C@@H](CN1CCCC1)N(C)C(=O)Cc1cccc(Cl)c1` gave an IC50 in assay [3] of 99 nM. In assay [2], this compound showed a median effective dose (ED50) of 0.77 mg/kg. For `CN(C(=O)Cc1ccc(Cl)c(Cl)c1)[C@H](CN1CCCC1)c1ccccc1`, the ED50 in assay [4] turned out to be 0.004 mg/kg; in assay [2], 0.05 mg/kg. Consider `CN(C(=O)Cc1ccc(Cl)c(Cl)c1)C(CN1CCCC1)c1cccc(O)c1` (stereo not given), for which the half-maximal inhibitory concentration (IC50) in assay [1] came to 11.5 nM. In addition, it took a dose of 0.53 mg/kg to reach the 50% effect level in assay [2] (ED50).

On to `CC(C)[C@@H](CN1CCCC1)NC(=O)Cc1ccccc1`, for which, in assay [1], the IC50 came out at 485 nM. This compound also yielded an ED50 in assay [2] of 29.7 mg/kg.

In assay [3], `CC(C)[C@@H](CN1CCCC1)N(C)C(=O)Cc1ccc(Cl)c(Cl)c1` [listing 1 of 2 here] yielded a 50% inhibitory concentration (IC50) of 6.9 nM. Compound `CCN(CC)C[C@H](C(C)C)N(C)C(=O)Cc1ccc(Cl)c(Cl)c1` showed a half-inhibitory concentration (IC50) in assay [1] of 81 nM. Besides, it took a dose of 1.18 mg/kg to reach the 50% effect level in assay [2] (ED50).

Turning to `CCCN(C(=O)Cc1ccccc1)[C@H](CN1CCCC1)C(C)C`, in assay [1], the half-inhibitory concentration (IC50) came out at 1440 nM. In other words, the single-digit micromolar range. Turning to `CC(C)[C@@H](CN1CCCC1)N(C)C(=O)Cc1ccc(C(F)(F)F)cc1`, the IC50 in assay [1] is 14.3 nM. The same compound gave an ED50 in assay [2] of 0.56 mg/kg. As for `CN(C(=O)Cc1ccc(Cl)c(Cl)c1)[C@@H](CN1CCCC1)c1ccccc1`, the half-inhibitory concentration (IC50) in assay [3] is 2750 nM. This compound also yielded a 50% effective dose (ED50) in assay [4] of over 10 mg/kg. Compound `CNC[C@H](C(C)C)N(C)C(=O)Cc1ccc(Cl)c(Cl)c1` registered an IC50 in assay [1] of 625 nM.

As for `CC(C)[C@@H](CN(C)C)N(C)C(=O)Cc1ccc(Cl)c(Cl)c1`, the IC50 in assay [1] was 105 nM. The compound further had a 50% effective dose (ED50) in assay [2] of 1.15 mg/kg. `CN(C(=O)Cc1ccc(Cl)c(Cl)c1)C(CN1CCCC1)c1cccc(N)c1` (stereo not given) registered an IC50 in assay [1] of 14.3 nM. Besides, the ED50 in assay [4] came to 0.041 mg/kg; in assay [2], 0.17 mg/kg.

`CN(C(=O)Cc1ccc(Cl)c(Cl)c1)C(CN1CCCC1)C(C)(C)C` (stereo not given) registered an IC50 in assay [3] of 24.5 nM. For the same compound, in assay [2], the ED50 came out at 0.13 mg/kg. `CC(C)[C@H](CN1CCCC1)N(C)C(=O)Cc1ccc(Cl)c(Cl)c1`: in assay [3], the 50% inhibitory concentration (IC50) is 1020 nM. Also, the 50% effect level in assay [2] (ED50) was put at a dose of 33.1 mg/kg.

In assay [1], `CNc1cccc(C(CN2CCCC2)N(C)C(=O)Cc2ccc(Cl)c(Cl)c2)c1` (stereo not given) returned a 50% inhibitory concentration (IC50) of 39.1 nM. The 50% effect level in assay [2] (ED50) was put at a dose of 0.63 mg/kg. `CN(C(=O)Cc1ccc(Cl)c(Cl)c1)C(CN1CCCC1)c1cccc(C#N)c1` (stereo not given) registered an IC50 in assay [1] of 25 nM.

In turn, `COc1ccc(C(CN2CCCC2)N(C)C(=O)Cc2ccc(Cl)c(Cl)c2)cc1` (stereo not given) yielded a half-maximal inhibitory concentration (IC50) in assay [1] of 73.2 nM. The ED50 in assay [2] came to 0.55 mg/kg.

In assay [2], `CC(C)[C@@H](CN1CCCC1)N(C)C(=O)Cc1ccc(Cl)c(Cl)c1` [listing 2 of 2 here] registered a median effective dose (ED50) of 0.78 mg/kg. Turning to `C[C@@H](CN1CCCC1)N(C)C(=O)Cc1ccc(Cl)c(Cl)c1`, in assay [2], the median effective dose (ED50) worked out at 1.98 mg/kg. In turn, `CC(C)[C@@H](CN1CCCC1)N(C)C(=O)COc1ccccc1` had an IC50 in assay [1] of 20.9 nM. In assay [2], this compound showed an ED50 of 0.73 mg/kg. Turning to `CN(C(=O)Cc1ccc(Cl)c(Cl)c1)C(CN1CCCC1)c1cccc(Cl)c1` (stereo not given), the IC50 in assay [3] was 57.8 nM. In addition, the 50% effect level in assay [2] (ED50) was put at a dose of 0.68 mg/kg. For `CN(C(=O)Cc1ccc(Cl)c(Cl)c1)C(CN1CCCC1)c1ccccc1` (stereo not given), the IC50 in assay [3] came to 12.2 nM. In addition, the ED50 in assay [4] came to 0.007 mg/kg; in assay [2], 0.15 mg/kg. In turn, `C=CCN(C)C[C@H](c1ccccc1)N(C)C(=O)Cc1ccc(Cl)c(Cl)c1` gave a concentration for half-maximal inhibition (IC50) in assay [1] of 8.2 nM. In assay [2], this compound came in with an ED50 of 0.71 mg/kg. In the case of `COc1ccc(CC(=O)N(C)[C@H](CN2CCCC2)C(C)C)cc1`, the IC50 in assay [1] was found to be 909 nM. The median effective dose (ED50) in assay [2] was found to be 10.6 mg/kg. With `CC[C@@H](CN1CCCC1)N(C)C(=O)Cc1ccc(Cl)c(Cl)c1`, the IC50 in assay [3] was found to be 65.4 nM. It took a dose of 2.76 mg/kg to reach the 50% effect level in assay [2] (ED50). Turning to `CN(C(=O)Cc1ccc(Cl)c(Cl)c1)C1CCCCC1N1CCCC1` (stereo not given), the ED50 in assay [4] amounted to 1.1 mg/kg; in assay [2], 7.37 mg/kg. On to `COc1ccccc1C(CN1CCCC1)N(C)C(=O)Cc1ccc(Cl)c(Cl)c1` (stereo not given), for which the IC50 in assay [1] is 16.8 nM. In assay [2], this compound had a 50% effective dose (ED50) of 0.22 mg/kg. Take `CC(C)[C@@H](CN1CCCC1)N(C)C(=O)CCc1ccccc1`: in assay [1], the IC50 stood at 420 nM. Regarding `CC[C@]12CCN(CC3CC3)[C@H](C(=O)c3ccc(O)cc31)[C@@H]2C`, the ED50 came to 0.17 mg/kg in assay [4] and 0.46 mg/kg in assay [2].

On to `CCC(C)[C@@H](CN1CCCC1)N(C)C(=O)Cc1ccc(Cl)c(Cl)c1` (stereo not given in full), for which, in assay [3], the IC50 was found to be 10.1 nM. In addition, the ED50 in assay [2] is 0.16 mg/kg. `CC(C)[C@@H](CN(C)Cc1ccccc1)N(C)C(=O)Cc1ccc(Cl)c(Cl)c1` returned an IC50 in assay [1] of 1610 nM. This counts as single-digit micromolar. As to `COc1ccc(C(CN2CCCC2)N(C)C(=O)Cc2ccc(Cl)c(Cl)c2)cc1OC` (stereo not given), the IC50 in assay [1] stood at 32.8 nM. Further, the median effective dose (ED50) in assay [2] was found to be 0.13 mg/kg. For `COc1ccc(C(CN2CCCC2)N(C)C(=O)Cc2ccc(Cl)c(Cl)c2)c(OC)c1` (stereo not given) the same measures were 248 nM and 1.5 mg/kg. In assay [1], `CC(C)[C@@H](CN(C)C(C)C)N(C)C(=O)Cc1ccc(Cl)c(Cl)c1` displayed an IC50 of 14.6 nM. Moreover, the 50% effect level in assay [2] (ED50) was put at a dose of 0.18 mg/kg.

In turn, `CCCN(C)C[C@H](C(C)C)N(C)C(=O)Cc1ccc(Cl)c(Cl)c1` returned an IC50 in assay [1] of 71 nM. The compound also showed an ED50 in assay [2] of 2.42 mg/kg. In turn, `CC(C)[C@@H](CN1CCCC1)N(C)C(=O)Cc1ccc([N+](=O)[O-])cc1` registered an IC50 in assay [1] of 92 nM. In assay [2], this compound returned an ED50 of 0.87 mg/kg. Turning to `COc1cccc(C(CN2CCCC2)N(C)C(=O)Cc2ccc(Cl)c(Cl)c2)c1` (stereo not given), the IC50 in assay [1] came to 31.2 nM. This compound yielded an ED50 in assay [2] of 0.39 mg/kg.

Regarding `CSc1ccc(C(CN2CCCC2)N(C)C(=O)Cc2ccc(Cl)c(Cl)c2)cc1` (stereo not given), in assay [1], the IC50 turned out to be 124 nM. The same compound had a 50% effective dose (ED50) in assay [2] of 3.3 mg/kg.

In assay [1], `CCN(C(=O)Cc1ccccc1)[C@H](CN1CCCC1)C(C)C` yielded a 50% inhibitory concentration (IC50) of 322 nM. The same compound had an ED50 in assay [2] of 8.72 mg/kg. Compound `CC(C)[C@@H](CN1CCCC1)N(C)C(=O)Cc1ccc(Cl)cc1` came in with an IC50 in assay [5] of 37.2 nM. This compound registered an ED50 in assay [2] of 1.4 mg/kg. Consider `CN(C(=O)Cc1ccc(Cl)c(Cl)c1)C(CN1CCCC1)c1ccc(O)cc1` (stereo not given), for which the IC50 in assay [1] was determined as 9.8 nM. Further, the ED50 in assay [2] worked out at 0.33 mg/kg. As to `CC(C)[C@@H](CN1CCCC1)N(C)C(=O)Cc1ccc(C#N)cc1`, the IC50 in assay [1] stood at 277 nM. Besides, the ED50 in assay [2] worked out at 9.31 mg/kg.

In assay [3], `CCC[C@@H](CN1CCCC1)N(C)C(=O)Cc1ccc(Cl)c(Cl)c1` registered a half-maximal inhibitory concentration (IC50) of 38.7 nM. In assay [2], it took a dose of 0.8 mg/kg to reach the 50% effect level (ED50). `CC(=O)Nc1cccc(C(CN2CCCC2)N(C)C(=O)Cc2ccc(Cl)c(Cl)c2)c1` (stereo not given): the IC50 in assay [1] was determined as 5.5 nM. The same compound gave an ED50 in assay [2] of 0.19 mg/kg. For `CC(C)[C@@H](CN1CCCCC1)N(C)C(=O)Cc1ccc(Cl)c(Cl)c1`, the IC50 in assay [3] worked out at 10.8 nM. This compound displayed a median effective dose (ED50) in assay [2] of 0.46 mg/kg.

On to `CN(C(=O)Cc1ccc(Cl)c(Cl)c1)[C@H](CN1CC=CC1)c1ccccc1`, for which, in assay [1], the IC50 stood at 10.8 nM. The compound further showed a 50% effective dose (ED50) in assay [2] of 0.04 mg/kg. Take `CC(C)[C@@H](CN1CCCC1)N(C)C(=O)CSc1ccccc1`: in assay [1], the IC50 is 206 nM. In assay [2], this compound showed an ED50 of 9.71 mg/kg. On to `CC(C)[C@@H](CN1CCCC1)N(C)C(=O)Cc1ccc(F)c(F)c1`, for which the IC50 in assay [1] is 101 nM. This compound yielded an ED50 in assay [2] of 1.18 mg/kg.
